Source: ChEMBL document CHEMBL1156476, “Inhibition of mammalian target of rapamycin signaling by 2-(morpholin-1-yl)pyrimido[2,1-alpha]isoquinolin-4-one” (J Biol Chem, 2007)

Assay: Inhibition of PI3K

IC50: 3000 nM
SMILES: O=c1cc(N2CCOCC2)oc2c(-c3ccccc3)cccc12 [LY-294002]
